Source: US7208314B2, “Compositions and methods for drug delivery using pH sensitive molecules” (priority 2002, dated 2007)
Where two headings read alike, the source gives them in different places.

Legend:
HELA cells = test: Endosome disruption assay (FITC-dextran, propidium iodide); assay type: cell-based; details: 50 μg; 25 min plus 35 min at 37° C.
Procedure: HeLa cells were plated in 6-well tissue culture dishes containing microscope slide coverslips and grown in Delbecco's Modified Eagle's Medium (DMEM)+10% fetal calf serum+penn/strep for 24–48 hours until 30–60% confluent. […] After 25 min, media containing FITC-dextran±melittin was removed, the cells were washed twice with 1 ml 37° C. DMEM lacking FITC-dextran and melittin, and cells were incubated for an additional 35 min at 37° C. in 1 ml fresh DMEM. In order to assess possible cell lysis caused by melittin, propidium iodide was added for the final 5 min of incubation. […] However, if the plasma membrane has been damaged, propidium iodide enters the cell where it will brightly stain the nucleus. To process slides for analysis, cells were washed 3 times with cold phosphate buffered saline (PBS), fixed in PBS+4% formaldehyde for 20–30 min at 4° C., and washed again 3 times with cold PBS. Excess liquid was drained from coverslips which were then mounted onto glass slides. Fluorescence was then analyzed on a Zeiss LSM510 confocal microscope. FITC was excited by a 488 nm argon laser and fluorescence emission was detected by a long pass 505 nm filter. […] For cells incubated with unmodified melittin near 100% cell death was observed as determined by propidium iodide staining of nuclei and loss of cells from the sample.

[1] = Hemolysis assay: peptides and derivatives as a function of pH; assay type: cell-based; details: 30 minutes, 37 C, read-out: Percent Hemolysis
Procedure: The membrane-disruptive activity of the peptide melittin and subsequent blocking of activity by anionic polymers was measured using a red blood cell (RBC) hemolysis assay. RBCs were harvested by centrifuging whole blood for 4 min. They were washed three times with 100 mM dibasic sodium phosphate at the desired pH, and resuspended in the same buffer to yield the initial volume. They were diluted 10 times in the same buffer, and 200 uL of this suspension was used for each tube. This yields 10 ? 8 RBCs per tube. Each tube contained 800 uL of buffer, 200 uL of the RBC suspension, and the peptide with or without polymer. Each sample was then repeated to verify reproducibility. The tubes were incubated for 30 minutes in a 37 C water bath. They were spun for 5 min at full speed in the microcentifuge. Lysis was determined by measuring tIe absorbance of the supernatant at 541 nm, reflecting the amount of hemoglobin that had been released into the supernatant. Percent hemolysis was calculated assuming 100% lysis to be measured by the hemoglobin released by the red blood cells in water; controls of RBCs in buffer with no peptide were also run.

Structure (SMILES) | endosomal release of FITC-dextran (HELA cells) | hemolysis ([1]; pH 5.4) [%] | hemolysis ([1]; pH 7.5) [%]
CC[C@H](C)[C@H](NC(=O)CNC(=O)/C(C)=C(/C)C(=O)O)C(=O)NCC(=O)N[C@@H](C)C(=O)N[C@H](C(=O)N[C@@H](CC(C)C)C(=O)N[C@@H](CCCCNC(=O)/C(C)=C(/C)C(=O)O)C(=O)N[C@H](C(=O)N[C@@H](CC(C)C)C(=O)N[C@H](C(=O)N[C@H](C(=O)NCC(=O)N[C@@H](CC(C)C)C(=O)N1CCC[C@H]1C(=O)N[C@@H](C)C(=O)N[C@@H](CC(C)C)C(=O)N[C@H](C(=O)N[C@@H](CO)C(=O)N[C@@H](Cc1c[nH]c2ccccc12)C(=O)N[C@H](C(=O)N[C@@H](CCCCNC(=O)/C(C)=C(/C)C(=O)O)C(=O)N[C@@H](CCCNC(=N)N)C(=O)N[C@@H](CCCCNC(=O)/C(C)=C(/C)C(=O)O)C(=O)N[C@@H](CCCNC(=N)N)C(=O)N[C@@H](CCC(N)=O)C(=O)N[C@@H](CCC(N)=O)C(N)=O)[C@@H](C)CC)[C@@H](C)CC)[C@@H](C)O)[C@@H](C)O)C(C)C)C(C)C [DM-Melittin] | release of dextran from endosomes |  | 
CC[C@H](C)[C@H](NC(=O)CNC(=O)CCC(=O)O)C(=O)NCC(=O)N[C@@H](C)C(=O)N[C@H](C(=O)N[C@@H](CC(C)C)C(=O)N[C@@H](CCCCNC(=O)CCC(=O)O)C(=O)N[C@H](C(=O)N[C@@H](CC(C)C)C(=O)N[C@H](C(=O)N[C@H](C(=O)NCC(=O)N[C@@H](CC(C)C)C(=O)N1CCC[C@H]1C(=O)N[C@@H](C)C(=O)N[C@@H](CC(C)C)C(=O)N[C@H](C(=O)N[C@@H](CO)C(=O)N[C@@H](Cc1c[nH]c2ccccc12)C(=O)N[C@H](C(=O)N[C@@H](CCCCNC(=O)CCC(=O)O)C(=O)N[C@@H](CCCNC(=N)N)C(=O)N[C@@H](CCCCNC(=O)CCC(=O)O)C(=O)N[C@@H](CCCNC(=N)N)C(=O)N[C@@H](CCC(N)=O)C(=O)N[C@@H](CCC(N)=O)C(N)=O)[C@@H](C)CC)[C@@H](C)CC)[C@@H](C)O)[C@@H](C)O)C(C)C)C(C)C [Succinyl Melittin] |  | 5 | 2
